This experiment deals with T1, Tyrosinase (Mus musculus, UniProt P11344).
T1 sequence (P11344 whole entry): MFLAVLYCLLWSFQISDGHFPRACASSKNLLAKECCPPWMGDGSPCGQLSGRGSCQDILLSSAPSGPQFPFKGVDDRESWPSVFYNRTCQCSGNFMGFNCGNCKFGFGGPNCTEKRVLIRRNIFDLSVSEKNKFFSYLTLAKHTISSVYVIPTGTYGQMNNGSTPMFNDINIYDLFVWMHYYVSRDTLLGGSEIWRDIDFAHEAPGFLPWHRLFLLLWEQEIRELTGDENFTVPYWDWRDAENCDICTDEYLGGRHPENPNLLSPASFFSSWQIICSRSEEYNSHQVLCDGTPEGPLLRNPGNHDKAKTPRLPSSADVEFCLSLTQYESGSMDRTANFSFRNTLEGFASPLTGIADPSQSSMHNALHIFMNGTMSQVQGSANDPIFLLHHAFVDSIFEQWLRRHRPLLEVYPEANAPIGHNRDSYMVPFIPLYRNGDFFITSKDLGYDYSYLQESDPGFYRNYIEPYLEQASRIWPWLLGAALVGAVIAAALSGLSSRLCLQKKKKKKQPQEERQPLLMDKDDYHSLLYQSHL
The experiment is classed as cell-based.

Each structure is given as a SMILES string.

Broadly, the IC50 is the point on the concentration scale where inhibition reaches its midpoint. A high value points to lower potency. In turn, `O=[N+]([O-])c1ccc(-c2nc(-c3ccncc3)c(-c3ccc(F)cc3)[nH]2)cc1` [PD-169316] returned a half-maximal inhibitory concentration (IC50) of 89 nM.

(Values after ChEMBL document CHEMBL4411257, “Inhibitors of Melanogenesis: An Updated Review” (J Med Chem, 2018).)
